Literature values as cited in PMC9510668 (Frontiers in Pharmacology, 2022).

System: CYP3A4
Details: lapatinib; ref [7]; cited from earlier work

Q: Which “kinact CPY3A4” value does the source give for `CS(=O)(=O)CCNCc1ccc(-c2ccc3ncnc(Nc4ccc(OCc5cccc(F)c5)c(Cl)c4)c3c2)o1` [lapatinib] here?
A: 0.021 min⁻¹
